Test results taken from patent US9573954B2, “Pyrazolopyrimidine compounds” (University Health Network, priority 2012, dated 2017).

Protein sequences, listed by entry. Tags and fused reporters are not part of them.
UniProt P33981, whole entry: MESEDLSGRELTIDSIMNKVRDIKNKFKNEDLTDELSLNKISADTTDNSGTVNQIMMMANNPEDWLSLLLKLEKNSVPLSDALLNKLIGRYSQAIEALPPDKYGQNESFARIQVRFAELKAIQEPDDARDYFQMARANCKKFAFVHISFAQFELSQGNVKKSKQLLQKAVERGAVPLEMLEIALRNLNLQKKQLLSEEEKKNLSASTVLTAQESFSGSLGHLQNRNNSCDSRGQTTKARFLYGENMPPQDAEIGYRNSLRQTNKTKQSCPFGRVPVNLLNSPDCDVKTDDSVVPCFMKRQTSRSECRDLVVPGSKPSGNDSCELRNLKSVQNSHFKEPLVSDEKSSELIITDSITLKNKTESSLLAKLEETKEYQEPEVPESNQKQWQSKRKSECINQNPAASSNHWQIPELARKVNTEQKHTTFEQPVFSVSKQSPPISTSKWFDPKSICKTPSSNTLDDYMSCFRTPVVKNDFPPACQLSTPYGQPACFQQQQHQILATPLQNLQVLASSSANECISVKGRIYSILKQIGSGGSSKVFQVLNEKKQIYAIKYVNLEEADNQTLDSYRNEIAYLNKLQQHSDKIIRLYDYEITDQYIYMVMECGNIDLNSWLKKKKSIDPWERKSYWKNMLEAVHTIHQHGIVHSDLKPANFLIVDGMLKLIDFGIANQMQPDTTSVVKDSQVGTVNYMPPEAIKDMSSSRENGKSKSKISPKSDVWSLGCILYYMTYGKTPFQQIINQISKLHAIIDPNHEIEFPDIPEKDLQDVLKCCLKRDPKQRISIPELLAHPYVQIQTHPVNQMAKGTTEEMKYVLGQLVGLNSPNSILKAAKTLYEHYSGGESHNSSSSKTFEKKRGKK

Experiments:
human TTK = human TTK (Homo sapiens, UniProt P33981); assay: TTK inhibition assay (indirect ELISA)
[1] = tested on: colon cancer cells (HCT116); assay: Cancer cell line growth inhibition, Sulforhodamine B assay, HCT116
Procedure: (§1) Breast cancer cells (MDA-MB-231 and MDA-MB-468), colon cancer cells (HCT116) and ovarian cancer cells (PA-1 and OVCAR-3) were seeded (1000 to 4000 in 80 μl per well depending on the cell growth rate) into 96 well plates 24 hours before compound overlay. Compounds were prepared as 10 mM stock solutions in 100% DMSO which were diluted with DMEM (Dulbecco's Modified Eagle's Medium) cell growth Medium (Invitrogen, Burlington, ON, Canada) containing 10% FBS (Fetal Bovine Serum) to concentrations ranging from 50 nM to 250 μM. Aliquots (20 μl) from each concentration were overlaid to 80 μl of the pre-seeded cells in the 96 well plates to make final concentrations of 10 nM to 50 μM. The cells were cultured for 5 days before the Sulforhodamine B assay (SRB) was performed to determine the compound's cell growth inhibition activity.
(§2) Sulforhodamine B (purchased from Sigma, Oakville, ON, Canada) is a water-soluble dye that binds to the basic amino acids of the cellular proteins. Thus, colorimetric measurement of the bound dye provides an estimate of the total protein mass that is related to the cell number. the cells are fixed in situ by gently aspirating off the culture media and adding 50 μl ice cold 10% Trichloroacetic Acid (TCA) per well and incubate at 4° C. for 30-60 min, The plates are washed with H2O five times and allowed to air dry for 5 min. Addition of 50 μl 0.4% (w/v) SRB solution in 1% (v/v) acetic acid to each well and incubation for 30 min at RT completes the staining reaction. Following staining, plates are washed four times with 1% acetic acid to remove unbound dye and then allowed to air dry for 5 min. The stain is solubilized with 100 μl of 10 mM Tris pH 10.5 per well. Absorbance is read at 570 nm.
(§3) The percentage (%) of relative growth inhibition was calculated by comparing to DMSO treated only cells (100%). GI50's were determined for compounds with cytotoxic activity. The GI50 was calculated using GraphPad PRISM software (GraphPad Software, Inc., San Diego, Calif., USA). GI50 (growth inhibition) is the compound concentration that causes 50% inhibition of cell growth.
(§4) In Table 1 below, GI50 value ranges for compound examples against breast cancer cell lines (MDA-MB-468), colon cancer cell lines (HCT116) and ovarian cancer cell lines (PA-1) are given. […] The GI50 ranges are indicated as “A,” “B,” and “C,” for values less than or equal to 0.1 μM; those greater than 0.1 μM and less than or equal to 0.5 μM; and those greater than 0.5 μM, respectively.
In Table 2 below, GI50 value ranges for compound examples against breast cancer cell lines (MDA-MB-231), colon cancer cell lines (HCT116) and ovarian cancer cell lines (PA-1) are given. […]

[2] = tested on: breast cancer cells (MDA-MB-468); assay: Cancer cell line growth inhibition, Sulforhodamine B assay, MDA-MB-468; details: read-out: Cancer Cell Line GI50 Range MDA-MB-468, MDA-MB-468 breast cancer cell line
Procedure: as §1, §2, §3, §4
In Table 3 below, GI50 value ranges for compound examples against breast cancer cell lines (MDA-MB-468), colon cancer cell lines (HCT116) and ovarian cancer cell lines (OVCAR-3) are given. […]

[3] = tested on: ovarian cancer cells (OVCAR-3); assay: Cancer cell line growth inhibition, Sulforhodamine B assay, OVCAR-3; details: read-out: Cancer Cell Line GI50 Range OVCAR-3, OVCAR-3 ovarian cancer cell line
Procedure: as §1, §2, §3
In Table 3 below, GI50 value ranges for compound examples against breast cancer cell lines (MDA-MB-468), colon cancer cell lines (HCT116) and ovarian cancer cell lines (OVCAR-3) are given. […] The GI50 ranges are indicated as “A,” “B,” and “C,” for values less than or equal to 0.1 μM; those greater than 0.1 μM and less than or equal to 0.5 μM; and those greater than 0.5 μM, respectively.

[4] = tested on: Ovarian 2393A tumor initiating cells; assay: Tumor-initiating cell growth inhibition, Alamar Blue assay, ovarian TICs; details: read-out: Tumor Initiating Cell GI50 Range Ovarian 2393A, Ovarian 2393A TICs, 6 days
Excerpt: (§5) Non-tissue or tissue cultured treated T-75 flask and 96-well plates were purchased from VWR. Vitamin B-27 supplement, MEM NEAA (minimum essential medium non essential amino acids), sodium pyruvate, L-glutamine, N2 supplement, penicillin-streptomycin and fungizone/amphotericin B were obtained from Invitrogen. Lipid mixture, heparin and EGF were purchased from Sigma; bFGF from BD Biosciences. Tumor Initiating Cells (TICs) from colon were routinely maintained using non-tissue cultured treated T-75 flasks in DMEM:F12 medium containing 0.2XB-27 supplement, 4 ug/ml heparin, 1×MEM NEAA, 1×sodium pyruvate, 1 mM glutamine, 10 pg/ul bFGF, 20 pg/ul EGF, 1× N2 supplement, lipid mixture, penicillin-streptomycin and fungizone/amphotericin B. Ovarian TICs were routinely maintained using tissue cultured treated T-75 flasks in DMEM:F12 medium containing IXB-27 supplement, 4 ug/ml heparin, 20 pg/ul bFGF, 20 pg/ul EGF and penicillin-streptomycin.
(§6) Compounds described herein were dissolved in DMSO and further diluted in cell culture medium for GI50 determination. Colon TICs were trypsinized and seeded into non-tissue cultured treated 96-well plates with 4,000 cells/well. After 24 h, compound was added into the cell culture at different concentrations, and the final concentration of DMSO was adjusted to 0.1%. Cells were then cultured at 37° C. for 9 days. Ovarian TICs were trypsinized and seeded into tissue cultured treated 96-well plates with 1,000 cells/well. After 24 h, compound was added into the cell culture at different concentrations, and the final concentration of DMSO was adjusted to 0.1%. Cells were then cultured at 37° C. for 6 days. Cell viability was assessed by Alamar Blue assay: 10 ul of Alamar Blue was added into each well. After 4 hours incubation at 37° C., fluorescence was recorded at excitation 544 and emission 590. GI50 (Growth inhibition) was calculated using GraphPad Prism 4.0 software.
(§7) In Table 1 below, GI50 value ranges for compound examples against TICs (Colon 12 and Ovarian 2393A) are given. […]

[5] = tested on: Colon 12 tumor initiating cells; assay: Tumor-initiating cell growth inhibition, Alamar Blue assay, colon TICs; details: read-out: Tumor Initiating Cell GI50 Range Colon 12, Colon 12 TICs, 9 days
Excerpt: as §5, §6, §7

[6] = read-out: TTK IC50 Range (denoted with an asterisk), 16 μM ATP (Sigma cat# A7699)
[7] = read-out: Cancer Cell Line GI50 Range HCT116

In the case of `O=C(NC1CC1)c1ccc(-c2cnn3c(NCC4CCOCC4)nc(NC4CCCC4)nc23)cc1F`, the pIC50 (human TTK; read-out: TTK IC50 Range (denoted with an asterisk), 16 μM ATP (Sigma cat# A7699), tested form: HCl) was > 7.00, the GI50 ([1]; read-out: Cancer Cell Line GI50 Range HCT116, tested form: HCl) was > 500 nM and the GI50 ([2]; tested form: HCl) was > 500 nM. The GI50 ([3]; tested form: HCl) was > 500 nM, the GI50 ([4]; tested form: HCl) was 100 to 500 nM and the GI50 ([5]; tested form: HCl) was 100 to 500 nM.
In the case of `Cc1cc(-c2cnn3c(NCC4CCOCC4)nc(Oc4cccc(F)c4F)nc23)ccc1C(=O)NC1CC1`, the pIC50 (human TTK; [6]) was > 7.00, the GI50 [1, 7] was < 100 nM and the GI50 [2] was < 100 nM. The GI50 [3] was < 100 nM, the GI50 [4] was < 100 nM and the GI50 [5] was < 100 nM.
In the case of `Cc1cc(-c2cnn3c(NCC4CCOCC4)nc(OC4CCCC4)nc23)ccc1C(=O)NC1CC1`, the pIC50 (human TTK; [6]) was > 7.00, the GI50 [1, 7] was 100 to 500 nM and the GI50 [2] was 100 to 500 nM. The GI50 [3] was > 500 nM.
`COc1cccc(Oc2nc(NCC3CCOCC3)n3ncc(-c4ccc(C(=O)NC5CC5)c(F)c4)c3n2)c1` was tested, and the pIC50 (human TTK; [6]) was > 7.00.
In the case of `CC(C)C(=O)Nc1ccc(-c2cnn3c(NCC4CCOCC4)nc(OC4CCCC4)nc23)cc1`, the pIC50 (human TTK; [6]) was < 6.30.
For `Cc1cc(-c2cnn3c(NC[C@H]4CC[C@@H](O)CC4)cc(NC4CCCOC4)nc23)ccc1C(=O)NC1CC1` (stereo partly shown), the pIC50 (human TTK; read-out: TTK IC50 Range, 100 μM ATP, tested form: TFA salt) was > 7.00, the GI50 ([1]; read-out: Cancer Cell Line GI50 Range HCT116, tested form: TFA salt) was < 100 nM and the GI50 ([2]; tested form: TFA salt) was < 100 nM. The GI50 ([3]; tested form: TFA salt) was 100 to 500 nM, the GI50 ([4]; tested form: TFA salt) was 100 to 500 nM and the GI50 ([5]; tested form: TFA salt) was 100 to 500 nM.
In the case of `Cc1cc(-c2cnn3c(NCC4CC(O)C4)cc(NC4CCCC4)nc23)ccc1C(=O)NC1CC1` (stereo not shown), the GI50 ([3]; tested form: HCl salt) was 100 to 500 nM.

pIC50: −log10 of the molar value. Where two headings read alike, the source gives them in different places.
